Biological target: human MC1R (Homo sapiens, UniProt Q01726)
Assay: pERK
Conditions: Figure S2A

Sequences of proteins named here, by UniProt entry; tags and fusion partners are left off. A change or cut given only in a name is not applied to a line headed by its entry.
UniProt Q01726: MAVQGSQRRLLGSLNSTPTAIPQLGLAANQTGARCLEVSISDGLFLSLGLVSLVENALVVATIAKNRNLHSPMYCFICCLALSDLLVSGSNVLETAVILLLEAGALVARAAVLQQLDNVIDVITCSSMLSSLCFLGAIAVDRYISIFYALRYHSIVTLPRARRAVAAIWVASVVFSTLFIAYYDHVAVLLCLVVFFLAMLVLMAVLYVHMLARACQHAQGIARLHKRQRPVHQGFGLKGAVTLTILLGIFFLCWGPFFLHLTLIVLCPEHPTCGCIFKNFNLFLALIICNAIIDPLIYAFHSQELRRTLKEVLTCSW

NDP- melanocyte stimulating hormone [NDP-MSH]
time after which pERK induction was down-regulated: 5–10 min

— PMC3994986 (Pigment cell & melanoma research, 2012)
